Experimental data taken from US5610155A, “Condensed diazepinones, processes for preparing them and agents containing these compounds for treating diseases of the central nervous system and for promoting cerebral blood circulation” (Dr. Karl Thomae GmbH, priority 1995, dated 1997).

Test system: arecoline-induced increase in blood pressure
Assay: Investigation for central activity: arecoline test, CNS-penetration in vivo
Details: rat, i.v.
Method: Principle: Arecoline has both a central and a peripherally active component. […] Cerebroavailable antimuscarinics block this central effect. Method: Male rats weighing 300 g are anaesthetised i.p. with urethane (1.2 g/kg). The trachea is […], the animals are respirated with an air/oxygen mixture (80 breaths per minute). The blood pressure is recorded after canulation of the carotid artery by means of a pressure recorder (Bell and Howell Type 4-327-I). The test substances are administered through the jugular vein ([…]). […] The arecoline is administered (in doses of 0.3 mg/kg) at 15 minute intervals. After 2 comparison values, the test substance is injected in increasing doses 5 minutes before the next administration of arecoline. The results obtained were compared with the average starting values and determined as the percentage inhibition.

Structure (SMILES): CCN(CC)CC1CCCCN1CC(=O)N1c2ccccc2C(=O)Nc2cccnc21 (stereo not drawn) [H]
- Effect on arecoline-mediated central effects / increase in blood pressure (in words): no effect on the increase in blood pressure caused by arecoline

Structure (SMILES): CCN(CC)CC1CCCCN1CC(=O)N1c2cc(Cl)ccc2C(=O)Nc2cccnc21 (stereo not drawn) [K]
- Effect on arecoline-mediated central effects / increase in blood pressure (in words): no effect on the increase in blood pressure caused by arecoline

Structure (SMILES): O=C1Nc2cccnc2N(C(=O)CCCCCN2CCCCC2)c2ccccc21 [O]
- Effect on arecoline-mediated central effects / increase in blood pressure (in words): no effect on the increase in blood pressure caused by arecoline
